From US20250295776A1, “CLEAVAGE RESISTANT CD16 CONSTRUCTS AND USES THEREOF” (Celularity Inc., priority 2022, published 2025)

Test system: NCI-N87 gastric cancer cell line
Test: In vivo efficacy in subcutaneous NCI-N87 gastric tumor model
Parameters: species or system NSG-Tg-hIL15 mice
Conditions: CYNK-101 10×10^6 cells IV Days 7, 14, 21 or Trastuzumab 10 mg/kg IP Day 7
Protocol: The anti-tumor activity and safety of CYNK-101 in combination with Trastuzumab were evaluated in a subcutaneous gastric tumor model using the NSG mice with transgenic expression of human IL-15 (NSG-Tg-hIL15).
A total of eighty female NSG-Tg-hIL15 mice were preconditioned with busulfan (30 mg/kg) to deplete myeloid cells on Day −3. […] One week later (Day 7), seventy-three mice with palpable tumors were randomized to the following four groups: Vehicle control (n=19), Trastuzumab (n=17), CYNK-101 (n=19), CYNK-101+Trastuzumab (n=18). Trastuzumab (10 mg/kg) was administered intraperitonially (IP) once on Day 7, and CYNK-101 at the dose of 10×10^6 cells/mouse was administered intravenously (IV) three times on Days 7, 14 and 21.

Substance: Trastuzumab: anti-HER2 antibody
- tumor growth, single agent vs vehicle control: significantly inhibited tumor growth
